From patent US20050228023A1, “Agonist and antagonist ligands of the nociceptin receptor” (published 2005) come the findings set out here.

One test concerns the target μ opiate receptor (Homo sapiens, UniProt P35372). Kind of test: Opiate receptor binding affinity, μ. The following applies: read-out: Ki (nM) μ.
The next test addresses κ opiate receptor (Homo sapiens, UniProt P41145). Kind of test: Opiate receptor binding affinity, κ. The settings on record: read-out: Ki (nM) κ.

Take `O=C1Cc2ccccc2N1C1CCN(Cc2ccccc2)CC1`: the results for the Ki at μ opiate receptor and at κ opiate receptor were 91.1 nM and 84.5 nM, respectively.

For `O=C1Cc2ccccc2N1C1CCN(C(C2CCCCC2)C2CCCCC2)CC1`, the Ki at μ opiate receptor was 227 nM; on κ opiate receptor, 343 nM.

In the case of `O=C1Cc2ccccc2N1C1CCN(C2CCc3ccccc3C2)CC1` (stereo not shown), the inhibition constant (Ki) was 38.9 nM at μ opiate receptor and 55.1 nM on κ opiate receptor.

Turning to `O=C1Cc2ccccc2N1C1CCN(C2CCCC3CCCCC32)CC1` (stereo not shown), the Ki at μ opiate receptor stood at 36.7 nM; at κ opiate receptor it was 202 nM.

In the case of `CC(c1ccc(C2CCCCC2)cc1)N1CCC(N2C(=O)Cc3ccccc32)CC1` (stereo not shown), the Ki at μ opiate receptor was 210 nM; at κ opiate receptor it was 3870 nM.

A word on the Ki: it is a dissociation constant, usually derived from enzyme kinetics or from competition with a known ligand.
